Reference: US20230024302A1

Amino acid sequences for entries named in this document (tags omitted).
UniProt P48736, whole entry: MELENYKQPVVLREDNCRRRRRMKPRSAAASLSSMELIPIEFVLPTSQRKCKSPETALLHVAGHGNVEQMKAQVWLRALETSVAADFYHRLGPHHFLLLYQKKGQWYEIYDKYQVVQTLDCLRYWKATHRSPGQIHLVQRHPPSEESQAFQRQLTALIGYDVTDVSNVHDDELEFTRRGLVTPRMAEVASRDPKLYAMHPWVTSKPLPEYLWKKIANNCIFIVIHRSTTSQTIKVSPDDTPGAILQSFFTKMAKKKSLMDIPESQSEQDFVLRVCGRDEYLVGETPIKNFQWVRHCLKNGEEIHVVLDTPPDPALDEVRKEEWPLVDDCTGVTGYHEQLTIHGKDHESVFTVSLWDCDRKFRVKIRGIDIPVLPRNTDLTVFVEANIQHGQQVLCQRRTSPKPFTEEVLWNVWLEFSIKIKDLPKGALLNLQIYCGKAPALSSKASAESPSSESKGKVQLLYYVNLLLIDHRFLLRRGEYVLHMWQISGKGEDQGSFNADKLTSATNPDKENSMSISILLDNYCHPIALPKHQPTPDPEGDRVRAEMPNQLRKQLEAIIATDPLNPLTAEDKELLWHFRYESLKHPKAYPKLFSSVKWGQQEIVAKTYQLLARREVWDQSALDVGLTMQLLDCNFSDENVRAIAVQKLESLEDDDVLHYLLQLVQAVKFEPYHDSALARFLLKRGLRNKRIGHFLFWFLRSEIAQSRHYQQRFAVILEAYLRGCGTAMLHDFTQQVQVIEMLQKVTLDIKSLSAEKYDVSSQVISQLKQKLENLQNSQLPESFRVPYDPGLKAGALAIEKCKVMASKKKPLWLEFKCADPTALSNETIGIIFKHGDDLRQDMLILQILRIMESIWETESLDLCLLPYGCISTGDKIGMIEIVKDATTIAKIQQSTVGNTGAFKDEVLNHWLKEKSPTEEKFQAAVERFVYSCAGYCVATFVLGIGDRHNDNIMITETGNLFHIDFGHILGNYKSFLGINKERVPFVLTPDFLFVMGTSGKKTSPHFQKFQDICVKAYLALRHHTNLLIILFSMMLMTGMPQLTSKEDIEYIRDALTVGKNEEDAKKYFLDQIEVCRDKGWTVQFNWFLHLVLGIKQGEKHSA

Key:
PI3Kγ (p120γ) = PI3Kγ (p120γ) (Homo sapiens, UniProt P48736); assay: Inhibition of PI3K kinase activity (ADP Glo), PI3Kγ; details: read-out: biochemical potency (PI3Kγ IC50), Table 2
PI3Kγ = PI3Kγ (Homo sapiens, UniProt P48736); assay: PI3Kγ cellular assay in THP-1 cells (AKT pS473 AlphaLISA); assay type: cell-based; details: read-out: cellular potency (PI3Kγ IC50), Table 2, rhMCP-1 stimulated AKT pS473

- IC50 (PI3Kγ (p120γ)): < 100 nM
- IC50 (PI3Kγ): 100 to 1000 nM
SMILES: Cc1cc(-c2ccn3nc(N)c(C(=O)N4CCN(C)CC4)c3n2)cc2c1C(=O)N([C@@H](C)C1CC1)C2
